Reference: patent publication US10532064B2, “Biophosphonate compounds and gamma delta T cell-mediated therapy for treating epstein-barr virus-associated disorders” (priority 2014, dated 2020)

System: Vγ9Vδ2-T cells
Test: Expansion of Vγ9Vδ2-T cells from huPBMC in vitro with PAM and IL-2
Format: cell-based, human
Conditions: IL-2 in the absence of PAM
Method: The data are representative of 4 independent experiments. […] Data are representative of 4 independent experiments. […] Data are representative of 4 independent experiments.
Pamidronate-expanded Vγ9Vδ2-T cells were generated as described before (Tu et al., 2011). Briefly, huPBMC were cultured in RPMI 1640 medium supplemented with 10% FBS. Pamidronate was added at day 0 and day 3 to a final concentration 9 μg/ml. Recombinant human IL-2 (Invitrogen) was added to a final concentration of 500 UI/ml every 3 days from day 3. […] The purity of Vγ9Vδ2-T cells as determined by flow cytometry using anti-CD3 and anti-V62 mAbs, was consistently >97%.
Human PBMCs were isolated from buffy coat preparation or anticoagulated peripheral blood by Ficoll-paque (GE Health life Science) gradient centrifugation. The PBMCs were cultured in 10% FBS-RPMI1640 supplemented with 15 ul of expansion reagent A; 25 ul of expansion reagent B was added from day 3 post culture. […] Vγ9Vδ2-T cells only accounted for 1-5% (mean, 3%) in the peripheral blood PBMC from randomly selected samples (FIG. 10A). […] Data are representative for 4 independent experiments.

Substance: IL-2: human recombinant Interleukin-2
- expansion of Vγ9Vδ2-T cells: could not induce the expansion
